This note sets out measurements from ChEMBL document CHEMBL5385960, “Screening of efficient salicylaldoxime reactivators for DFP and paraoxon-inhibited acetylcholinesterase” (2024).

Sequences of proteins named here, by UniProt entry; tags and fusion partners are left off. A change or cut given only in a name is not applied to a line headed by its entry.
UniProt P22303: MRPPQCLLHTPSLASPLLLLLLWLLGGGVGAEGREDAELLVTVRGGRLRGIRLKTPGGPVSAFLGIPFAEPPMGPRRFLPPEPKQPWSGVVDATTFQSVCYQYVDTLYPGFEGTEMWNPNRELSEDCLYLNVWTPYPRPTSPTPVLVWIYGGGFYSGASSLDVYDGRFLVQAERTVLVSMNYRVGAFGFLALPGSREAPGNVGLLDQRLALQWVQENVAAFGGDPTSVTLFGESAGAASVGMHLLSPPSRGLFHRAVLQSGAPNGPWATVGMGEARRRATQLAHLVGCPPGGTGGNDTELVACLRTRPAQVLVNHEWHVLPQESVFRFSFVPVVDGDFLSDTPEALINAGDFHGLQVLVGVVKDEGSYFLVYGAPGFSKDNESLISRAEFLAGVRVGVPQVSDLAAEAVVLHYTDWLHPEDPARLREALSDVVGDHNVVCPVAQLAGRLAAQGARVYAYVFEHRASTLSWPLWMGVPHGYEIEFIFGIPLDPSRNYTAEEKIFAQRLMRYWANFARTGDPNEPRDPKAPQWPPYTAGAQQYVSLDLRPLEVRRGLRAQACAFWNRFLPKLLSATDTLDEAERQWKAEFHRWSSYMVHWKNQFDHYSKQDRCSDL

Each structure is given as a SMILES string.

Assay [1] has as its target Acetylcholinesterase (Homo sapiens) (UniProt P22303). Kind of assay: Reactivation of paraoxon-inhibited human erythrocyte AChE using acetylthiocholine as substrate assessed as reactivation rate constant preincubated with paraoxon for 15 mins followed by compound and substrate addition and measured every 5 to 10 mins for 120 mins by DTNB based Ellman's method. The following applies: filed as activator. Background: DTNB colorimetry detects thiols as they appear.

The target is the same in assay [2]. Kind of assay: Reactivation of paraoxon-inhibited human erythrocyte AChE using acetylthiocholine as substrate at 100 uM preincubated with paraoxon for 15 mins followed by compound addition for 30 mins and further incubated with substrate for 20 mins by DTNB based Ellman's method relative to control. The arrangement: scale not given: the % may be the effect or the level left. The conditions noted are these: time 50.0 min.

Assay [3] has the same target. Kind of assay: Reactivation of DFP-inhibited human erythrocyte AChE using acetylthiocholine as substrate assessed as reactivation rate constant preincubated with DFP for 15 mins followed by compound and substrate addition and measured every 5 to 10 mins for 120 mins by DTNB based Ellman's method. The conditions noted are these: filed as activator.
The target is the same in assay [4]. Kind of assay: Reactivation of paraoxon-inhibited human erythrocyte AChE using acetylthiocholine as substrate at 10 uM preincubated with paraoxon for 15 mins followed by compound addition for 30 mins and further incubated with substrate for 20 mins by DTNB based Ellman's method relative to control. The arrangement: scale not given: the % may be the effect or the level left. The conditions noted are these: time 50.0 min.

The target is the same in assay [5]. Kind of assay: Reactivation of DFP-inhibited human erythrocyte AChE using acetylthiocholine as substrate at 10 uM preincubated with DFP for 15 mins followed by compound addition for 30 mins and further incubated with substrate for 20 mins by DTNB based Ellman's method relative to control. The following applies: time 50.0 min. The arrangement: scale not given: the % may be the effect or the level left.

Assay [6] has the same target. Kind of assay: Reactivation of DFP-inhibited human erythrocyte AChE using acetylthiocholine as substrate at 100 uM preincubated with DFP for 15 mins followed by compound addition for 30 mins and further incubated with substrate for 20 mins by DTNB based Ellman's method relative to control. The arrangement: scale not given: the % may be the effect or the level left. The conditions noted are these: time 50.0 min.

The target is the same in assay [7]. Kind of assay: Reactivation of DFP-inhibited human erythrocyte AChE using acetylthiocholine as substrate assessed as second order reactivation rate constant preincubated with DFP for 15 mins followed by compound and substrate addition and measured every 5 to 10 mins for 120 mins by DTNB based Ellman's method. The conditions noted are these: filed as activator.
The target is the same in assay [8]. Kind of assay: Reactivation of paraoxon-inhibited human erythrocyte AChE using acetylthiocholine as substrate assessed as second order reactivation rate constant preincubated with paraoxon for 15 mins followed by compound and substrate addition and measured every 5 to 10 mins for 120 mins by DTNB based Ellman's …. The following applies: filed as activator.

For `O=[N+]([O-])c1ccc(N2CCN(Cc3cc(Br)cc(/C=N/O)c3O)CC2)cc1`, the K in assay [1] is 10.8 10^-3/min; in assay [3], 3.5 10^-3/min; in assay [7] it was 21 M⁻¹ s⁻¹; in assay [8], 196 M⁻¹ s⁻¹. The Activity was 83.8% in assay [2] (filed as activator), 68.5% in assay [4] (filed as activator), 54.8% in assay [5] (filed as activator) and 66.6% in assay [6] (filed as activator).

`O/N=C/c1cc(Cl)cc(CN2CCN(c3ccc(O)cc3)CC2)c1O`: the Activity in assay [2] worked out at 35.6%; in assay [4], 22.6%; in assay [5], 33.1%; in assay [6] (filed as activator), 52.2%.

For `O/N=C/c1cc(Cl)cc(CN2CCN(c3ccccc3)CC2)c1O`, the Activity in assay [2] is 13.5%; in assay [4] it was 4.1%; in assay [5] it was 5.8%; in assay [6], 25.1%.

For the molecule `O/N=C/c1cc(Cl)cc(CN2CCN(c3ccc(Cl)cc3)CC2)c1O`, the Activity in assay [2] came to 3.2%; in assay [4], 3.3%; in assay [5], 3.2%; in assay [6] it was 9.9%.

On to `Cc1cc(/C=N/O)c(O)c(CN2CCN(c3ccccc3Cl)CC2)c1`, for which the Activity in assay [2] came out at 19.2%; in assay [4] it was 4.4%; in assay [5], 17.8%; in assay [6] (filed as activator), 40.5%.

As for `O/N=C/c1cc[n+](COC[n+]2ccccc2/C=N/O)cc1`, the K in assay [1] is 26.5 10^-3/min; in assay [3], 7.3 10^-3/min; in assay [7], 256 M⁻¹ s⁻¹; in assay [8], 542 M⁻¹ s⁻¹. Also, the results for the Activity in assay [2] (filed as activator) and in assay [6] (filed as activator) were 90.9% and 92.8%, respectively.

For `Cc1cc(/C=N/O)c(O)c(CN2CCN(c3ccccn3)CC2)c1`, the Activity came out at 63.9% in assay [2] (filed as activator), 30.7% in assay [4], 30.4% in assay [5] and 56% in assay [6] (filed as activator).

As to `Cc1ccc(N2CCN(Cc3cc(C)cc(/C=N/O)c3O)CC2)cc1`, the Activity was 34.2% in assay [2], 9.1% in assay [4], 28.5% in assay [5] and 54.3% in assay [6] (filed as activator).

Consider `O/N=C/c1cc(Cl)cc(CN2CCN(c3ccc(F)cc3)CC2)c1O`, for which the Activity in assay [2] stood at 23.5%; in assay [4] it was 12%; in assay [5], 27.3%; in assay [6] it was 34.7%.

With `Cc1cc(/C=N/O)c(O)c(CN2CCN(c3ccc(Br)cc3)CC2)c1`, the Activity in assay [2] was found to be 36%; in assay [4], 23.4%; in assay [5], 2.7%; in assay [6], 4.9%.

Regarding `O/N=C/c1cc(Cl)cc(CN2CCC(c3ccncc3)CC2)c1O`, the K is 26.9 10^-3/min in assay [1], 5.7 10^-3/min in assay [3], 16.5 M⁻¹ s⁻¹ in assay [7] and 87.3 M⁻¹ s⁻¹ in assay [8]. Further, the Activity in assay [2] (filed as activator) was found to be 73.5%; in assay [4] (filed as activator), 57.1%; in assay [5] (filed as activator) it was 49.4%; in assay [6] (filed as activator), 81.3%.

In the case of `O/N=C/c1cc(Cl)cc(CN2CCC(c3ccc(F)cc3)CC2)c1O`, the K was 3.5 10^-3/min in assay [1], 2.6 10^-3/min in assay [3], 2.67 M⁻¹ s⁻¹ in assay [7] and 2.83 M⁻¹ s⁻¹ in assay [8]. Also, the Activity stood at 75.9% in assay [2] (filed as activator), 40.2% in assay [4] (filed as activator), 47.6% in assay [5] (filed as activator) and 66.5% in assay [6] (filed as activator).

For the molecule `Cc1cc(/C=N/O)c(O)c(CN2CCC(c3ccc(F)cc3)CC2)c1`, the Activity in assay [2] (filed as activator) amounted to 40.6%; in assay [4], 11.3%; in assay [5] (filed as activator), 40.8%; in assay [6] (filed as activator) it was 48.3%.

Turning to `O/N=C/c1cc(Br)cc(CN2CCN(c3ccncc3)CC2)c1O`, the K is 26.4 10^-3/min in assay [1], 12 10^-3/min in assay [3], 164 M⁻¹ s⁻¹ in assay [7] and 257 M⁻¹ s⁻¹ in assay [8]. Also, the Activity in assay [2] (filed as activator) was determined as 86.2%; in assay [4] (filed as activator), 71.8%; in assay [5] (filed as activator) it was 45.8%; in assay [6] (filed as activator) it was 79.2%.

On to `Cc1cc(/C=N/O)c(O)c(CN2CCN(c3ccc(C(F)(F)F)cc3)CC2)c1`, for which the K in assay [1] is 2.5 10^-3/min; in assay [3], 3.5 10^-3/min; in assay [7], 8.83 M⁻¹ s⁻¹; in assay [8], 9.67 M⁻¹ s⁻¹. The Activity in assay [2] (filed as activator) was found to be 69%; in assay [4] (filed as activator), 41.7%; in assay [5], 37.3%; in assay [6] (filed as activator) it was 63.5%.

In the case of `O=[N+]([O-])c1ccc(N2CCN(Cc3cc(Cl)cc(/C=N/O)c3O)CC2)cc1`, the K in assay [1] is 25.2 10^-3/min; in assay [3] it was 2.5 10^-3/min; in assay [7], 16.8 M⁻¹ s⁻¹; in assay [8], 206 M⁻¹ s⁻¹. The Activity in assay [2] (filed as activator) turned out to be 92.4%; in assay [4] (filed as activator), 78.8%; in assay [5] (filed as activator), 52.5%; in assay [6] (filed as activator), 77.2%.

For `O/N=C/c1cc(Cl)cc(CN2CCN(c3ccccn3)CC2)c1O`, the Activity in assay [2] (filed as activator) came to 65.5%; in assay [4], 39.5%; in assay [5], 28.4%; in assay [6] (filed as activator) it was 50%.

Take `Cc1cc(/C=N/O)c(O)c(CN2CCC(c3ccncc3)CC2)c1`: the K was 11.5 10^-3/min in assay [1], 9.2 10^-3/min in assay [3], 5.5 M⁻¹ s⁻¹ in assay [7] and 19.3 M⁻¹ s⁻¹ in assay [8]. The Activity in assay [2] (filed as activator) was determined as 72.1%; in assay [4] (filed as activator), 41.6%; in assay [5] (filed as activator) it was 40.3%; in assay [6] (filed as activator), 72.5%.

Consider `O/N=C/c1cc(Cl)cc(CN2CCN(c3ccncc3)CC2)c1O`, for which the K in assay [1] was 31.2 10^-3/min; in assay [3] it was 12.5 10^-3/min; in assay [7] it was 198 M⁻¹ s⁻¹; in assay [8] it was 524 M⁻¹ s⁻¹. In addition, the Activity in assay [2] (filed as activator) stood at 90.3%; in assay [4] (filed as activator) it was 75.6%; in assay [6] (filed as activator), 86.7%.

For `Cc1cc(/C=N/O)c(O)c(CN2CCN(c3ccc(F)cc3)CC2)c1`, the Activity in assay [2] is 26.5%; in assay [4], 7.8%; in assay [5], 19.4%; in assay [6], 38.3%.

Regarding `Cc1cc(/C=N/O)c(O)c(CN2CCN(c3ccccc3)CC2)c1`, the Activity in assay [2] came to 9.5%; in assay [4], 4.7%; in assay [5] it was 15.7%; in assay [6], 37.1%.

With `O/N=C/c1cc(Cl)cc(CN2CCN(c3ccc(Br)cc3)CC2)c1O`, the Activity in assay [2] was found to be 23.7%; in assay [4] it was 16.5%; in assay [5] it was 2.1%; in assay [6], 4.5%.

Consider `O/N=C/c1cc(F)cc(CN2CCN(c3ccncc3)CC2)c1O`, for which the Activity in assay [2] (filed as activator) was found to be 50.3%; in assay [4], 34.4%; in assay [5], 24.1%; in assay [6] (filed as activator), 53.2%.

On to `O/N=C/c1cc(Cl)cc(CN2CCN(c3ccccc3Cl)CC2)c1O`, for which the Activity stood at 10.9% in assay [2], 8.1% in assay [4], 28.5% in assay [5] and 44.1% in assay [6] (filed as activator).

With `O/N=C/c1cc(Cl)cc(CN2CCN(c3ccc(C(F)(F)F)cc3)CC2)c1O`, the Activity in assay [2] (filed as activator) is 44.6%; in assay [4], 21.5%; in assay [5] it was 26.6%; in assay [6], 37.5%.

On to `Cc1cc(/C=N/O)c(O)c(CN2CCN(c3ccccc3F)CC2)c1`, for which the Activity is 18.5% in assay [2], 6.1% in assay [4], 27.9% in assay [5] and 59.3% in assay [6] (filed as activator).

Regarding `O/N=C/c1cc(Br)cc(CN2CCN(c3ccc(C(F)(F)F)cc3)CC2)c1O`, the Activity in assay [2] was determined as 37.8%; in assay [4], 11.7%; in assay [5], 20%; in assay [6] (filed as activator) it was 40.8%.

With `Cc1cc(/C=N/O)c(O)c(CN2CCN(c3ccc(Cl)cc3)CC2)c1`, the Activity in assay [2] amounted to 5.1%; in assay [4], 5%; in assay [5] it was 5.1%; in assay [6] it was 19.3%.

As for `Cc1ccc(N2CCN(Cc3cc(Cl)cc(/C=N/O)c3O)CC2)cc1`, the Activity was 15.3% in assay [2], 9.9% in assay [4], 25.7% in assay [5] and 40% in assay [6] (filed as activator).

As to `O/N=C/c1cc(Cl)cc(CN2CCN(c3ccccc3F)CC2)c1O`, the Activity in assay [2] came out at 25.2%; in assay [4] it was 13.7%; in assay [5], 31.3%; in assay [6] (filed as activator), 57.9%.

In the case of `Cc1cc(/C=N/O)c(O)c(CN2CCN(c3ccc(O)cc3)CC2)c1`, the Activity in assay [2] (filed as activator) was determined as 43.2%; in assay [4] it was 20.3%; in assay [5], 22%; in assay [6] (filed as activator), 46.9%.
